Protein sequences, listed by entry. Tags and fused reporters are not part of them. Lines headed by an entry give the natural chain unless they say otherwise; changes in a name come on top.
UniProt Q14654: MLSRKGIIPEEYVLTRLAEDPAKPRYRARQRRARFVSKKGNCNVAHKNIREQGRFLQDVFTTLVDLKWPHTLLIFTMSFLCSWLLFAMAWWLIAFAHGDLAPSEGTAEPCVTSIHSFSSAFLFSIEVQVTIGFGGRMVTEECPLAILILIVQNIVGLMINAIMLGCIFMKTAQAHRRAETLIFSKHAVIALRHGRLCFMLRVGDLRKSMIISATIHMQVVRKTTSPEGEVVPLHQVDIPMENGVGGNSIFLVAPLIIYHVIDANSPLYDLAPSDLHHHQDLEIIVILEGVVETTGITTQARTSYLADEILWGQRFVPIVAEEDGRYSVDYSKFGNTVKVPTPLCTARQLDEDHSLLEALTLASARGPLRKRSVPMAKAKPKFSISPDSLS
UniProt Q09428: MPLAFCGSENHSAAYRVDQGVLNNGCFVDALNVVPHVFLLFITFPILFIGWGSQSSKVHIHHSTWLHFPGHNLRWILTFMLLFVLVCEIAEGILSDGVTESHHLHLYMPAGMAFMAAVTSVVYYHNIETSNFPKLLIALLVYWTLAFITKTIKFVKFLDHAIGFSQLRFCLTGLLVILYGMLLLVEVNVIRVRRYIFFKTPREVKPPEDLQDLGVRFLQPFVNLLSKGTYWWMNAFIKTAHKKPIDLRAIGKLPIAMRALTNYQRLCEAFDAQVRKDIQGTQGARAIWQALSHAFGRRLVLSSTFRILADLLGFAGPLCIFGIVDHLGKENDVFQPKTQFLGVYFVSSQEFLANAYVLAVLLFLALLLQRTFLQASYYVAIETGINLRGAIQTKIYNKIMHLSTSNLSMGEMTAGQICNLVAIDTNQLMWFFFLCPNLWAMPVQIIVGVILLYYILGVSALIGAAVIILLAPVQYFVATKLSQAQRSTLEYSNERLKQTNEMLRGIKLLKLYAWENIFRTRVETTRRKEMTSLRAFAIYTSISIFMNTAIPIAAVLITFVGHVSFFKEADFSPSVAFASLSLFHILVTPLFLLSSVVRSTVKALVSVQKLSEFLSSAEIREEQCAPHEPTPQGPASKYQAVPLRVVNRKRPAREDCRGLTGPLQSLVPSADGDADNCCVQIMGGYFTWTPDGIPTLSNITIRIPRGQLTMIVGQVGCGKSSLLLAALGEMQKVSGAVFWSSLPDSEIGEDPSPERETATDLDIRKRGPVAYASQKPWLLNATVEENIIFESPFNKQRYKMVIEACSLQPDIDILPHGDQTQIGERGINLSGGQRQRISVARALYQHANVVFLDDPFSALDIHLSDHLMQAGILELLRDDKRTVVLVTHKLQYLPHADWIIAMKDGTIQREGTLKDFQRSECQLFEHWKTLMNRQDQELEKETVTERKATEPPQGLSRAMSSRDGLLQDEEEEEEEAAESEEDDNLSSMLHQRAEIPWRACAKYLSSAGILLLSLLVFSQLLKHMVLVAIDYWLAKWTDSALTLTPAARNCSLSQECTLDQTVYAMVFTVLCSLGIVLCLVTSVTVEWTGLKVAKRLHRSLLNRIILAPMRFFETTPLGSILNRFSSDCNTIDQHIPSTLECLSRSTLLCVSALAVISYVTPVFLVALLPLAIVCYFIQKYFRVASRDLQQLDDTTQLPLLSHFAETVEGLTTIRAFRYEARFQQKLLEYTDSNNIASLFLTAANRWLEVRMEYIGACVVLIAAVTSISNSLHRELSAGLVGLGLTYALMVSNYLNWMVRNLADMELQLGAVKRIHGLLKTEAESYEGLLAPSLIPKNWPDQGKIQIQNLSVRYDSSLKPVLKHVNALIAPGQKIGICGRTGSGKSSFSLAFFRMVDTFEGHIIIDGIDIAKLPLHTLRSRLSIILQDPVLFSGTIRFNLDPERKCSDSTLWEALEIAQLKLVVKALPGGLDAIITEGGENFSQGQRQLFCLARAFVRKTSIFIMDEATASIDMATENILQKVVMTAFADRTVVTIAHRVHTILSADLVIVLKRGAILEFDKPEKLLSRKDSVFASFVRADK

According to ChEMBL document CHEMBL1149217, “3-trifluoromethyl-4-nitro-5-arylpyrazoles are novel K(ATP) channel agonists” (Bioorg Med Chem Lett, 2004):

Target: Sulfonylurea receptor 1, Kir6.2 (Homo sapiens) (UniProt Q14654+Q09428)
Assay: Percent maximal agonist response of human KATP (SUR1/Kir6.2) channel expressed in Xenopus oocytes
Format: functional, cell-based
Conditions: Oocyte
Outline: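 ATP-sensitive K+ currents were recorded by excised-patch clamp from inside-out macropatches pulled from Xenopus oocytes expressing human SUR1/Kir6.2. Compounds were tested across a dose range to give dose–response curves. […] Values are means of 3-6 experiments.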

## O=[N+]([O-])c1ccc(-c2[nH]nc(C(F)(F)F)c2[N+](=O)[O-])c([N+](=O)[O-])c1
  Max response: 122%
